Measurements from patent publication US20060234955A1, “Cardiac glycosides to treat cystic fibrosis and other il-8 dependent disorders” (priority 2002, published 2006).

Test system: IL-8 secretion from cystic fibrosis epithelial cell line IB-3
Conditions: IB-3 cells, 48 hour incubation, FIG. 3

SMILES: C[C@@H]1O[C@@H](O[C@H]2C[C@@H](O)[C@]3(CO)[C@H]4[C@H](O)C[C@]5(C)[C@@H](C6=CC(=O)OC6)CC[C@]5(O)[C@@H]4CC[C@]3(O)C2)[C@H](O)[C@H](O)[C@H]1O [Compound IV, ouabain, reference compound]
- ID50 (dose for 50% inhibition) for spontaneous IL-8 secretion: 8 nM

SMILES: CO[C@H]1C[C@H](O[C@H]2CC[C@@]3(C)[C@H](CC[C@@H]4[C@@H]3CC[C@]3(C)[C@@H](C5=CC(=O)OC5)[C@@H](OC(C)=O)C[C@]43O)C2)O[C@@H](C)[C@@H]1O [Compound I]
- ID50 (dose for 50% inhibition) for spontaneous IL-8 secretion: approximately 1 nM
